Usually EC50 stands for the concentration giving half of the maximal effect.

Sequences of proteins named here, by UniProt entry; tags and fusion partners are left off. Residues count along the entry.
UniProt O42275, 24-633 limits assumed: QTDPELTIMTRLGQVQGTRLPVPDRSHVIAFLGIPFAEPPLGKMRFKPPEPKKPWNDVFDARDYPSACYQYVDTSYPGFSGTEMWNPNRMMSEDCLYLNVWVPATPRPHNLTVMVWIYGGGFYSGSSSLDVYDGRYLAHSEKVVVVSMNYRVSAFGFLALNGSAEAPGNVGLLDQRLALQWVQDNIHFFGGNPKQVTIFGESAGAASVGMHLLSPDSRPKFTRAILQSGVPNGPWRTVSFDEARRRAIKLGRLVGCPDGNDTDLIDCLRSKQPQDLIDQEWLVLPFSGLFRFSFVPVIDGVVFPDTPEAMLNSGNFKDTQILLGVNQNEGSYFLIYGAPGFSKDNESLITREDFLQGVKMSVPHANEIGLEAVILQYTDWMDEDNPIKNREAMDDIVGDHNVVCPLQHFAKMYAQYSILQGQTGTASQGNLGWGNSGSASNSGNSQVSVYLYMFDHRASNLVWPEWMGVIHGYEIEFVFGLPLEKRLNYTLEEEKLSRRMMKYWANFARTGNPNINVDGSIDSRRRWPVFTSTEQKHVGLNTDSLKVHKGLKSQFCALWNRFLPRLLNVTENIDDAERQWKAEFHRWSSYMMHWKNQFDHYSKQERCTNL
UniProt P22303, 32-614 limits assumed: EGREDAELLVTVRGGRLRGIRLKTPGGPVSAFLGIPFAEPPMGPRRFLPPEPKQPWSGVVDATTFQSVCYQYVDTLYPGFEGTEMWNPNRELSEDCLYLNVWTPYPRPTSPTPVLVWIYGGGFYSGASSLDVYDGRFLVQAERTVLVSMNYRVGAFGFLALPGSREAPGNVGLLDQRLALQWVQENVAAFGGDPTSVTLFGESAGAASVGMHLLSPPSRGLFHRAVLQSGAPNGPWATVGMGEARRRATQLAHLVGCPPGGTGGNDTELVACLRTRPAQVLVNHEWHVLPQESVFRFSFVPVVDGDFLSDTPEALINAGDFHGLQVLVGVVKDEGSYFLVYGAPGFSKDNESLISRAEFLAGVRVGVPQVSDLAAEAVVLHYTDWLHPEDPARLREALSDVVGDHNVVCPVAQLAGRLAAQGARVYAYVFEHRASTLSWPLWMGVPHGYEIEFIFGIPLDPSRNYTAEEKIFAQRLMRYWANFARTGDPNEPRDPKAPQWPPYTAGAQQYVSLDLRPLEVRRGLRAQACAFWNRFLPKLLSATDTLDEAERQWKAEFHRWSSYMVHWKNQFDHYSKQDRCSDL

Each structure is given as a SMILES string. Read-outs that look alike come from different tables or passages of the source.

For experiment [1], the target named is Electrophorus electricus (electric eel) AChE (Electrophorus electricus, UniProt O42275). Briefly: Ellman's assay: reactivation of paraoxon-inhibited electric eel AChE. To be noted: read-out: EC50, AChE activity (reactivation), 10 U/mL eel AChE, mean±SEM. (In general: Ellman's reagent forms a yellow product with free thiols.)
The target of another experiment is human AChE (Homo sapiens, UniProt P22303). The experiment can be described thus: Ellman's assay: reactivation of paraoxon-ethyl-inhibited human AChE. To be noted: read-out: EC50, normalized AChE activity (reactivation); 10 U/mL human AChE, 20 μM paraoxon-ethyl, 0-600 μM reactivator, pH 7.4; mean±SEM.
[2] abbreviates: 20 μM paraoxon-ethyl, at 20 minutes, pH 7.4.
[3] abbreviates: 20 μM paraoxon-methyl, at 20 minutes, pH 7.4.
Setting [4] is: 20 μM paraoxon-ethyl, at 25 minutes, 1:1:88:10 isopropanol:DMSO:phosphate:Tris pH 7.4.

With `Cc1cccc(/C=N/O)[n+]1C`, the 50% effective concentration (EC50) in experiment [1] (setting [2]) came to 18 µM; in experiment [1] (setting [3]), 24 µM.
`C[n+]1ccc(CCc2ccccc2)cc1/C=N/O`: the concentration giving a half-maximal response (EC50) in experiment [1] (setting [4]) amounted to 18 µM.
As to `Cc1cc[n+](C)c(/C=N/O)c1`, the EC50 in experiment [1] (setting [2]) and in experiment [1] (setting [3]) was 18 µM throughout.
As for `C[n+]1ccc(C#Cc2ccccc2)cc1/C=N/O`, the EC50 in experiment [1] (setting [4]) amounted to 18 µM.
As to `C[n+]1ccc(-c2ccccc2)cc1/C=N/O`, at human AChE, the EC50 worked out at 69 µM.
For `C[n+]1ccc(C(F)(F)F)cc1/C=N/O`, the EC50 in experiment [1] (setting [4]) stood at 18 µM.
